From patent publication US4104397A, “Spiro (1,3-dioxolane-4,3') quinuclidine compounds” (The Purdue Frederick Company, priority 1975, dated 1978)

Sequences of proteins named here, by UniProt entry; tags and fusion partners are left off. Residues count along the entry.
UniProt H0W1Z3, 1-590: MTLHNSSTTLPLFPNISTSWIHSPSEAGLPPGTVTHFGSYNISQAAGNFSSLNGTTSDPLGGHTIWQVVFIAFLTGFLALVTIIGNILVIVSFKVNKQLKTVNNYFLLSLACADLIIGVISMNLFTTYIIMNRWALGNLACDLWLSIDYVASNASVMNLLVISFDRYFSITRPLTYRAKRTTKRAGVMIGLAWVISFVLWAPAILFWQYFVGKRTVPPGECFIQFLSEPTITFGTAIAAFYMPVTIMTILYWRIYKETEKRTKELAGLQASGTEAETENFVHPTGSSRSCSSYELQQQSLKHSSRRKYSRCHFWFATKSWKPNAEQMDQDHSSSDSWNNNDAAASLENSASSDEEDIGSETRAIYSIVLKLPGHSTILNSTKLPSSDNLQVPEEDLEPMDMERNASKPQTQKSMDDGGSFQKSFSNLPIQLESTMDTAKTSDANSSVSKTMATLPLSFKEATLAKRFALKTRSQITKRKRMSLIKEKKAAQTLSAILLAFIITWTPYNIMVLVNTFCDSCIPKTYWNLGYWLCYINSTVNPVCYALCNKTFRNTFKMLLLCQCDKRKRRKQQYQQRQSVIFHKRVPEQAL

Target: T1, Guinea-pig ileum (Cavia porcellus, UniProt H0W1Z3)
T1 construct: Guinea-pig ileum, log Ki; from tissue; host or cells: guinea-pig ileum
Assay: Antagonism in guinea-pig ileum (log Ki), Table 3
Type: cell-based
Details: printed as log Ki (negative)
Description: |Guinea-pig ileum, log Ki

Compound `CN1[C@@H]2CC[C@H]1CC(OC(=O)C(CO)c1ccccc1)C2` (stereo partly shown) [Atropine Sulphate] has a Ki of 1 nM.
